In US6849664B2, “Process for disposing biocide-containing cooling water” (priority 2001, dated 2005):

Test system: bacterial inoculum
Type: cell-based
Experimental: Growth Media: A standard minimal media containing only inorganic nutrients required for bacterial growth was used. The medium used to supply inorganic micronutrients to the growing culture of alkane degrading organisms consists of 0.1 g/L MgSO4.7H2O, 0.5 g/L NaNO3, 0.02 mM FeSO4 and 0.63 g/L K2HPO4 and 0.19 g/L KH2PO4 to achieve a pH of 7 to 7.3.
Test Conditions: 90 ml of media and 10 ml of the product to be tested (n-C16) were added to 250 ml flasks. […] After inoculation, the flasks were placed on a shaker-table (135 rpm) at room temperature in contact with air and observed daily.
In all experiments, a 10:1 ratio of minimal media to Fischer-Tropsch diesel fuel were prepared and evaluated in 250 ml flasks.

## NCCO [MEA, monoethanolamine]
1 ppm MEA control without glutaraldehyde, time 0 days
  Growth / No Growth: −
1 ppm MEA control without glutaraldehyde, time 1 days
  Growth / No Growth: −
1 ppm MEA control without glutaraldehyde, time 2 days
  Growth / No Growth: −
1 ppm MEA control without glutaraldehyde, time 3 days
  Growth / No Growth: +
1 ppm MEA control without glutaraldehyde, time 7 days
  Growth / No Growth: +
1 ppm MEA control without glutaraldehyde, time 9 days
  Growth / No Growth: +
1 ppm MEA control without glutaraldehyde, time 14 days
  Growth / No Growth: +
10 ppm MEA control without glutaraldehyde, time 0 days
  Growth / No Growth: −
10 ppm MEA control without glutaraldehyde, time 1 days
  Growth / No Growth: −
10 ppm MEA control without glutaraldehyde, time 2 days
  Growth / No Growth: −
10 ppm MEA control without glutaraldehyde, time 3 days
  Growth / No Growth: +
10 ppm MEA control without glutaraldehyde, time 7 days
  Growth / No Growth: +
10 ppm MEA control without glutaraldehyde, time 9 days
  Growth / No Growth: +
10 ppm MEA control without glutaraldehyde, time 14 days
  Growth / No Growth: +
100 ppm MEA control without glutaraldehyde, time 0 days
  Growth / No Growth: −
100 ppm MEA control without glutaraldehyde, time 1 days
  Growth / No Growth: −
100 ppm MEA control without glutaraldehyde, time 2 days
  Growth / No Growth: −
100 ppm MEA control without glutaraldehyde, time 3 days
  Growth / No Growth: −
100 ppm MEA control without glutaraldehyde, time 7 days
  Growth / No Growth: −
100 ppm MEA control without glutaraldehyde, time 9 days
  Growth / No Growth: −
100 ppm MEA control without glutaraldehyde, time 14 days
  Growth / No Growth: +
500 ppm MEA control without glutaraldehyde, time 0 days
  Growth / No Growth: −
500 ppm MEA control without glutaraldehyde, time 1 days
  Growth / No Growth: −
500 ppm MEA control without glutaraldehyde, time 2 days
  Growth / No Growth: −
500 ppm MEA control without glutaraldehyde, time 3 days
  Growth / No Growth: −
500 ppm MEA control without glutaraldehyde, time 7 days
  Growth / No Growth: −
500 ppm MEA control without glutaraldehyde, time 9 days
  Growth / No Growth: −
500 ppm MEA control without glutaraldehyde, time 14 days
  Growth / No Growth: +

Read-outs that look alike come from different tables or passages of the source.
